Laboratory results taken from published antibiotic growth screens (doi:10.1038/s41589-023-01349-8).
Some of the results follow.

tested on: A. baumannii ATCC 17978; assay: relative growth (fraction of control); higher = less inhibition; conditions: 50 µM

Q: `Cn1c(CC#N)n[nH]c1=S` was tested. Which relative growth did it give?
A: 1.03

Q: Which relative growth does the source give for `COc1ccccc1CN1C(=O)c2ccccc2[C@](Cc2ccccc2I)(C(=O)NCCCN(C)C)[C@@H]1c1ccc(CO)cc1` here?
A: 0.955

Q: With `CO/N=C(/C(=O)N[C@@H]1C(=O)N2C(C(=O)[O-])=C(COC(C)=O)CS[C@H]12)c1csc(N)n1.[Na+]` as the compound, how does the relative growth read?
A: 0.161

Q: For `O=C1c2c(O)cc(CO)cc2[C@H](O[C@@H]2O[C@H](CO)[C@@H](O)[C@H](O)[C@H]2O)c2cccc(O[C@@H]3O[C@H](CO)[C@@H](O)[C@H](O)[C@H]3O)c21` [CASANTHRANOL [cascaroside A shown]], which relative growth is on record?
A: 0.93

Q: Which relative growth does the source give for `CCNC(=O)C[C@@H]1CC[C@H](NC(=O)C2CC2)[C@@H](CO)O1` here?
A: 0.999

Q: Which relative growth does the source give for `NC(=O)C1N=CN([C@@H]2O[C@H](CO)[C@@H](O)[C@H]2O)C1=O` (stereo not given in full) here?
A: 0.995

Q: For `CSC1=NN(C)c2cnn(C)c(=O)c2S1`, which relative growth is on record?
A: 1

Q: `CC(C)(C)NCCCCOc1ccc(Cl)cc1C(C)(C)C` was tested. Which relative growth did it give?
A: 0.689

Q: Which relative growth does the source give for `CC(=O)O[C@H]1C[C@@H](OC(C)=O)C(C)(C)C2C[C@@H](OC(C)=O)[C@]3(C)C(CC[C@@]4(C)[C@H](c5ccoc5)OC(=O)[C@H]5O[C@]543)[C@]21C` (stereo not given in full) here?
A: 1.72

Q: How did the relative growth turn out when `CN1CCN(C(=O)C[C@@H]2CC[C@H]3[C@@H](COC[C@@H](O)CN3S(=O)(=O)c3cccc(F)c3)O2)CC1` was run?
A: 1.08

Q: `O=C(C[C@@H]1C[C@H]2c3cc(NS(=O)(=O)c4ccccc4)ccc3O[C@H]2[C@H](CO)O1)NCC(F)(F)F` was tested. Which relative growth did it give?
A: 1.06

Q: How did the relative growth turn out when `COCCNC(=O)C[C@H]1C[C@@H]2c3cc(NS(C)(=O)=O)ccc3O[C@@H]2[C@H](CO)O1` was run?
A: 0.991

Q: `Nc1ccc(S(=O)(=O)Nc2ccc(Cl)nn2)cc1` was tested. Which relative growth did it give?
A: 0.982

Q: For `CCC(=O)N1CCN=C1SC`, which relative growth is on record?
A: 0.884

Q: With `C[C@H]1CN([C@@H](C)CO)C(=O)CCCn2cc(nn2)CO[C@@H]1CN(C)C(=O)Nc1cccc2ccccc12` as the compound, how does the relative growth read?
A: 1.14

Q: `COCC#Cc1ccc2c(c1)O[C@@H](CN(C)S(=O)(=O)c1ccc(F)cc1)[C@@H](C)CN([C@H](C)CO)S2(=O)=O` was tested. Which relative growth did it give?
A: 1.04

Q: With `N#CCCS(=O)(=O)c1ccc(N)cc1` as the compound, how does the relative growth read?
A: 1.08

Q: For `Cc1cc(/C=C/c2ccc3cc(N(C)C)ccc3[n+]2C)c(C)n1-c1ccccc1.O=C([O-])c1cc2ccccc2c(Cc2c(O)c(C(=O)O)cc3ccccc23)c1O`, which relative growth is on record?
A: 2.46

Q: `O=C1c2c(O[C@@H]3O[C@H](CO)[C@@H](O)[C@H](O)[C@H]3O)cc(O)cc2O[C@@]1(O)Cc1ccc(O)cc1` was tested. Which relative growth did it give?
A: 1.05

Q: Which relative growth does the source give for `COC(=O)c1ccccc1N(C)S(C)(=O)=O` here?
A: 0.905

Q: For `COc1cccc(S(=O)(=O)N2C[C@H](O)COC[C@H]3O[C@@H](CC(=O)N4CCN(C)CC4)CC[C@@H]32)c1`, which relative growth is on record?
A: 0.967

Q: For `COc1ccc(NC(=O)N2C[C@@H](O)COC[C@@H]3O[C@@H](CC(=O)NCc4ccccc4OC)CC[C@H]32)cc1`, which relative growth is on record?
A: 1.1

Q: Which relative growth does the source give for `C[C@H]1CN([C@@H](C)CO)C(=O)CCCn2cc(nn2)CO[C@@H]1CN(C)C(=O)c1ccc(N2CCN(C)CC2)cc1` here?
A: 0.885

Q: How did the relative growth turn out when `CCOC(=O)c1cccnc1N` was run?
A: 1.03

Q: Which relative growth does the source give for `C=CCOC(=O)[C@H]1[C@@H]2C(=O)O[C@@H](c3ccccc3)[C@@H](c3ccccc3)N2[C@@H](c2ccc(OCCOC(=O)[C@@H]3C[C@@H]4C(=O)N[C@@H](CCCCNC(C)=O)C(=O)N4[C@@H]3c3ccc(O)cc3)cc2)[C@]12C(=O)Nc1ccccc12` here?
A: 1.52

Q: `COC1=C(O)C(=O)c2c(cc3oc(C(C)=O)c(O)c3c2O)C1=O` was tested. Which relative growth did it give?
A: 0.976

Q: How did the relative growth turn out when `CN(C)C(=O)C[C@H]1CC[C@H](NC(=O)C2CC2)[C@H](CO)O1` was run?
A: 1.22

Q: How did the relative growth turn out when `O=C(N/N=C/[C@H](O)[C@@H](O)[C@@H](O)[C@H](O)C(=O)O)c1ccccc1O` was run?
A: 0.893

Q: With `Oc1ccc(O)cc1` as the compound, how does the relative growth read?
A: 0.918

Q: With `COc1cccc(S(=O)(=O)N[C@H]2CC[C@@H](CCn3cc(-c4ccccc4OC)nn3)O[C@@H]2CO)c1` as the compound, how does the relative growth read?
A: 0.921

Q: For `C[C@H](O)C#Cc1ccc2c(c1)O[C@@H](CN(C)C(=O)Nc1ccccc1)[C@H](C)CN([C@@H](C)CO)S2(=O)=O`, which relative growth is on record?
A: 1.12

Q: For `CC1=C2C(O)C(=O)OC3CC4C(C)(C)C(=O)C=C[C@]4(C)C(CC1)[C@]23C` (stereo not given in full), which relative growth is on record?
A: 0.917

Q: Which relative growth does the source give for `COCC#Cc1ccc2c(c1)O[C@H](CN(C)Cc1ccc(F)cc1)[C@H](C)CN([C@@H](C)CO)S2(=O)=O` here?
A: 0.945

Q: With `COC(=O)C1=C(C)NC(C)=C(C(=O)OC)C1` as the compound, how does the relative growth read?
A: 0.988

Q: For `C[C@]12CCC(=O)C=C1C=CC1C2CC[C@@]2(C)C1CC[C@@]21CCC(=O)O1` (stereo not given in full), which relative growth is on record?
A: 1

Q: For `O.OC[C@H]1O[C@@H](O[C@H]2[C@H](O)[C@@H](O)[C@@H](O)O[C@@H]2CO)[C@H](O)[C@@H](O)[C@H]1O`, which relative growth is on record?
A: 1.11

Q: For `CCCNC(=O)N1C[C@@H](O)COC[C@@H]2O[C@H](CC(=O)N3CCN(C)CC3)CC[C@H]21`, which relative growth is on record?
A: 1.1

Q: How did the relative growth turn out when `CC1(O)CCOC(=O)C1` (stereo not given) was run?
A: 1.18

Q: For `CC1CCC(NC(=O)N(CCCl)N=O)CC1` (stereo not given), which relative growth is on record?
A: 1.04

Q: With `CC(=O)OC1CC[C@@]2(C)C(CC[C@]3(C)C2CC[C@]24OC(=O)[C@@]5(CCC(C)C(C)C52)CC[C@]43C)C1(C)C` (stereo not given in full) as the compound, how does the relative growth read?
A: 0.917

Q: Which relative growth does the source give for `O=C(CN1CCOCC1)NCC[C@@H]1CC[C@@H](NC(=O)c2ccccc2F)[C@@H](CO)O1` here?
A: 1.01

Q: How did the relative growth turn out when `CCNC(=O)C[C@@H]1CC[C@H](NC(=O)C2CCOCC2)[C@@H](CO)O1` was run?
A: 0.827

Q: With `O=C(C[C@@H]1C=C[C@@H](NC(=O)c2ccc3c(c2)OCO3)[C@H](CO)O1)NCc1ccc(Oc2ccccc2)cc1` as the compound, how does the relative growth read?
A: 1.07

Q: `CC(C)C(=O)NCc1nnnn1-c1ccccc1` was tested. Which relative growth did it give?
A: 0.939

Q: For `CCCNC(=O)COc1cccc([C@@H](CCc2ccc(OC)c(OC)c2)OC(=O)[C@@H]2CCCCN2C(=O)C(=O)C(C)(C)CC)c1`, which relative growth is on record?
A: 1.01

Q: Which relative growth does the source give for `CCC(c1ccc(O)cc1)C(CC)c1ccc(O)cc1` (stereo not given) here?
A: 0.839

Q: For `O=C(CN1C(=O)CSC1=O)N1CCCC1`, which relative growth is on record?
A: 0.963

Q: With `C[C@@H]1CN([C@H](C)CO)S(=O)(=O)c2ccc(-c3cccnc3)cc2O[C@H]1CN(C)C(=O)c1cccc(F)c1` as the compound, how does the relative growth read?
A: 1.22

Q: For `COc1cccc(S(=O)(=O)Nc2ccc3c(c2)[C@@H]2C[C@@H](CC(=O)NCc4cccc(F)c4)O[C@@H](CO)[C@@H]2O3)c1`, which relative growth is on record?
A: 1.07

Q: With `C[C@H]1CN([C@@H](C)CO)S(=O)(=O)c2ccc(C#CC3CC3)cc2O[C@@H]1CN(C)C(=O)c1cccc(F)c1` as the compound, how does the relative growth read?
A: 0.946

Q: For `O=C(NCc1ccccc1)[C@@H]1c2ccccc2C(=O)N(CC23CC4CC(CC(C4)C2)C3)[C@H]1c1ccc(CO)cc1`, which relative growth is on record?
A: 1.15

Q: For `CC[C@@]1(O)C(=O)OCc2c1cc1n(c2=O)Cc2cc3cc(O)ccc3nc2-1`, which relative growth is on record?
A: 1.08

Q: `CNC(=O)C[C@@H]1CC[C@@H]2[C@H](COC[C@@H](O)CN2C(=O)Nc2ccc3c(c2)OCO3)O1` was tested. Which relative growth did it give?
A: 0.952

Q: How did the relative growth turn out when `C[C@@H](NC(=O)C[C@@H]1CC[C@@H](NC(=O)CN2CCOCC2)[C@H](CO)O1)c1ccccc1` was run?
A: 1.02

Q: How did the relative growth turn out when `O=C(O)/C=C/c1ccc(O[C@@H]2O[C@H](CO)[C@@H](O)[C@H](O)[C@H]2O)cc1` was run?
A: 1.11

Q: For `C[C@@H]1CCCCO[C@@H](CN(C)Cc2ccc3c(c2)OCO3)[C@H](C)CN([C@H](C)CO)C(=O)c2cc(NS(=O)(=O)c3ccc(Cl)cc3)ccc2O1`, which relative growth is on record?
A: 1.22

Q: How did the relative growth turn out when `C=CCn1c(=O)c2c(OC)ccnc2n(C)c1=O` was run?
A: 0.962

Q: `CC(C)[C@@H]1CC[C@@H](C)C[C@H]1O` was tested. Which relative growth did it give?
A: 0.971

Q: Which relative growth does the source give for `COc1ccc(S(=O)(=O)N(C)C[C@@H]2Oc3c(NC(=O)Nc4cccc5ccccc45)cccc3C(=O)N([C@H](C)CO)C[C@@H]2C)cc1` here?
A: 1.02

Q: `NC1=NC(=O)[C@@H]2N=C(Br)N([C@H]3O[C@H]4COP(=O)(O)O[C@@H]4[C@@H]3O)[C@H]2N1` was tested. Which relative growth did it give?
A: 0.936

Q: How did the relative growth turn out when `COCCNC(=O)C[C@H]1C[C@H]2c3cc(NC(=O)COC)ccc3O[C@H]2[C@@H](CO)O1` was run?
A: 1.05

Q: For `NCC[C@H]1CC[C@H](NC(=O)C2CCCCC2)[C@H](CO)O1`, which relative growth is on record?
A: 0.857

Q: For `CC(=O)OC/C=C(C)/C=C/C=C(C)/C=C/C1=C(C)CCCC1(C)C`, which relative growth is on record?
A: 0.965

Q: With `NS(=O)(=O)c1cc2c(cc1Cl)N=C(CSCc1ccccc1)NS2(=O)=O` as the compound, how does the relative growth read?
A: 0.986

Q: For `Cc1ccc(S(=O)(=O)N[C@@H]2CC[C@@H](CC(=O)NCc3ccc(Cl)c(Cl)c3)O[C@H]2CO)cc1`, which relative growth is on record?
A: 0.995

Q: How did the relative growth turn out when `O=C(C[C@H]1C=C[C@H](NC(=O)c2cccnc2)[C@H](CO)O1)NCc1ccncn1` was run?
A: 0.909

Q: With `C[C@H]1C/C(=C\N(C)C)C(=O)C1=O` as the compound, how does the relative growth read?
A: 0.803

Q: `CCC[C@H](N[C@@H](C)C(=O)N1[C@H](C(=O)O)C[C@@H]2CCCC[C@@H]21)C(=O)O` was tested. Which relative growth did it give?
A: 1.06

Q: Which relative growth does the source give for `C[C@@H]1CN([C@H](C)CO)S(=O)(=O)c2ccc(C#CC(C)(C)O)cc2O[C@@H]1CN(C)C(=O)C1CCCCC1` here?
A: 0.901

Q: `CCC[C@@H]1C[C@@H](C(=O)N[C@H]([C@H]2O[C@H](SC)[C@H](O)[C@@H](O)[C@H]2O)[C@H](C)O)N(C)C1.Cl` was tested. Which relative growth did it give?
A: 0.862

Q: With `NC(=S)c1cnc(-c2ccncc2)nc1N` as the compound, how does the relative growth read?
A: 0.934

Q: With `COCC(=O)N(C)C[C@H]1Oc2cc(C#CCN(C)C)ccc2S(=O)(=O)N([C@H](C)CO)C[C@H]1C` as the compound, how does the relative growth read?
A: 1.05

Q: For `CC(=O)Oc1c(C)cccc1C(=O)O`, which relative growth is on record?
A: 1.04

Q: With `COc1cccc(C#Cc2cnc3c(c2)C(=O)N([C@H](C)CO)C[C@@H](C)[C@@H](CN(C)C(=O)C2CCC2)O3)c1` as the compound, how does the relative growth read?
A: 0.697

Q: Which relative growth does the source give for `CO[C@@H](CN(C)S(=O)(=O)c1cccc(Cl)c1)[C@@H](C)CN([C@H](C)CO)S(=O)(=O)c1cccc(Cl)c1` here?
A: 0.914

Q: For `Cc1cc(NC(=O)C(=O)NC[C@H]2CCCO2)n(-c2nc(=O)cc(C)[nH]2)n1`, which relative growth is on record?
A: 1.09

Q: For `CC(C)CC#Cc1ccc2c(c1)O[C@H](CN(C)S(=O)(=O)c1cccc(F)c1)[C@@H](C)CN([C@@H](C)CO)S2(=O)=O`, which relative growth is on record?
A: 1.41

Q: Which relative growth does the source give for `NC(=O)CSc1nnnn1-c1ccccc1` here?
A: 0.965

Q: With `CS(=O)(=O)c1ccc([C@@H](O)[C@@H](CO)NC(=O)C(Cl)Cl)cc1` as the compound, how does the relative growth read?
A: 0.925

Q: With `Cc1ccc(Cn2nnc3c(=O)n(CC(N)=O)cnc32)cc1` as the compound, how does the relative growth read?
A: 0.869
